Data published in patent US20110053993A1, “PRODRUGS OF DESAZADESFERROTHIOCIN POLYETHER ANALOGUES AS METAL CHELATION AGENTS” (FERROKIN BIOSCIENCES, INC., priority 2009, published 2011).

Experiment: In vitro pharmacokinetic (metabolic) stability in human whole blood
Type: in vitro ADME
Details: 5 μM test compound, 37° C., time points 0, 0.5, 1, 4, 6 and 24 hours, LC/MS/MS, percent compound remaining
Procedure: In Vitro Pharmacokinetic Stability Evaluation
Compounds were tested for metabolic stability in human whole blood. Such testing is commonly undertaken prior to or along with advanced preclinical testing in order to identify compounds with desirable pharmacokinetic properties. Into each of 6 centrifuge tubes was added 2 μL of test compound and 198 μL of human whole blood, taken from normal, healthy volunteers, to achieve a final concentration of 5 μM. Tubes were then incubated at 37° C. at approximately 100 rpm on an orbital shaker. One of the tubes was taken at designated time points including 0, 0.5, 1, 4, 6 and 24 hours. The reaction was stopped by the addition of 4 volumes of cold methanol. Samples were centrifuged at 20,000 rpm for 20 minutes to precipitate protein. A 200 μL aliquot of the supernatant was used for LC/MS/MS analysis for each compound at each time point. All experiments were performed in duplicate. The LC system comprised a Shimadzu liquid chromatograph separation system equipped with degasser DGU-20A3, solvent delivery unit LC-20AD, system controller CBM-20A, column oven CTO-10ASVP and CTC Analytics HTC PAL System. Mass spectrometric analysis was performed using an API 4000 instrument from AB Inc. (Canada) with an ESI interface. […]

Substance: Mevinolin [Reference (Mevinolin), reference compound]
- Half Life: 4 to 6 h
